This note sets out measurements from ChEMBL document CHEMBL1140427, “Semi-rational design of (north)-methanocarba nucleosides as dual acting A(1) and A(3) adenosine receptor agonists: novel prototypes for cardioprotection” (J Med Chem, 2005).

Chains of the proteins cited; added tags and fusions are not shown.
UniProt P28647, whole entry: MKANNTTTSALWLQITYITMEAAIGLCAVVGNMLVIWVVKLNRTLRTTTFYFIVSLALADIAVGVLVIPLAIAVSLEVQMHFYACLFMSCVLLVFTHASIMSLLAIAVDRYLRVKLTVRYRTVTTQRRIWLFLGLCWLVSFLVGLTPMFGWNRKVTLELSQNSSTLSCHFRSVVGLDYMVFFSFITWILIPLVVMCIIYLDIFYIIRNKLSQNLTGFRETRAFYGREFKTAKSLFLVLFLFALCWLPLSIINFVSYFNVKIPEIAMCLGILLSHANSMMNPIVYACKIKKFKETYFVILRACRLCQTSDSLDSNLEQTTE

This assay deals with Adenosine receptor A3 (Rattus norvegicus, UniProt P28647). Put plainly: Binding affinity to rat adenosine A3 receptor in CHO cells. The assay is classed as cell-based.

Molecules are shown by their SMILES.

Compound `OC[C@H]1O[C@@H](n2cnc3c(NC4CCCC4)ncnc32)[C@H](O)[C@@H]1O` [N6-CYCLOPENTYLADENOSINE] had an inhibition constant Ki of 97 nM.
